Values joined by “and” are separate entries in the source; they are usually repeats but may differ in a detail not shown here. Equal values may be shown once. This is a selection; strong and weak results do not stand in their true shares. Inconclusive results are not listed. Active and inactive are the calls of the source. Calls follow the shape of the dose curve; as a rule, active = well fitted inhibition curve with a large enough effect; inconclusive = small, poorly fitted or top-dose-only effect, or another doubt; inactive = no such curve, though single readings can be large or run the other way.
% is scaled to controls: 0 for no effect and ±100 for the full control effect.

Sequences of proteins named here, by UniProt entry; tags and fusion partners are left off.
UniProt P11473, whole entry: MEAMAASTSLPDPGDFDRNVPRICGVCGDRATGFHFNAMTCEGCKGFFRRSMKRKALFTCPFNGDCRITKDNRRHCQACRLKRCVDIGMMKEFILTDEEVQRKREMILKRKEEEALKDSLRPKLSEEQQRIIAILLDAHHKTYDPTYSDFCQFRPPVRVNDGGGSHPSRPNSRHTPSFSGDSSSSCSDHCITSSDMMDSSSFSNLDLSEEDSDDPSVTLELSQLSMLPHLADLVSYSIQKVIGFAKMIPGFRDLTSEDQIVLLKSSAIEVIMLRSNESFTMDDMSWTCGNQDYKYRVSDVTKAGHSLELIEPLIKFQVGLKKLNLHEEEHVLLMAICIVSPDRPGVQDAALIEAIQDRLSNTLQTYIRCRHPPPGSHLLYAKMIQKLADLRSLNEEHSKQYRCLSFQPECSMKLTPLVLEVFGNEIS

For the assay, the target named is Vitamin D3 receptor (Homo sapiens) (UniProt P11473). Nature of the assay: Inhibitors of the vitamin D receptor (VDR): qHTS. To be noted: VDR-SRC2-3 peptide fluorescence polarization, 2 h; max response, negative = inhibition: active compounds read low.
In the case of `OCCSCCO`, the max response, negative = inhibition is inactive: -0.861%. Take `COc1ccccc1OP(C)(=O)Nc1c(C)n(C)n(-c2ccccc2)c1=O` (configuration not stated): the max response, negative = inhibition is inactive: 3.26%.

Regarding `CCc1ccc(OP(C)(=O)Nc2cccnc2)cc1` (configuration not stated), the max response, negative = inhibition is inactive: -2.18%. `Cc1ccc(NP(=O)(Oc2ccccc2)Oc2ccccc2)nc1`: the max response, negative = inhibition is inactive: -13.6%.

As for `CP(=O)(Oc1ccccc1)N1CCOC1=O` (configuration not stated), the max response, negative = inhibition is inactive: -0.212%.

On to `CCN(CC)CC(O)COC(=O)C(O)(c1ccccc1)C1CCCCC1` (configuration not stated), for which the max response, negative = inhibition was inactive: -23.2%. Regarding `CN(C)C(=O)OCCc1n(C)cc[n+]1C`, the max response, negative = inhibition is inactive: -20.6%. As for `CC(C)=N/N=C(\N)N[N+](=O)[O-]`, the max response, negative = inhibition is inactive: 3.59%.

For `CN(C)C(=O)c1c([N+](=O)[O-])cc([N+](=O)[O-])cc1[N+](=O)[O-]`, the max response, negative = inhibition was inactive: -21.4%. With `CC(=O)C1=CCCC2CCC1N2` (configuration not stated), the max response, negative = inhibition was inactive: 0.104% and inactive: -14%. As for `CC1CCN(C(=O)Oc2c(Cl)cc(Cl)c3cccnc23)CC1`, the max response, negative = inhibition is inactive: -4.69%.

Turning to `COc1ccccc1OP(C)(=O)Nc1ccccc1Br` (configuration not stated), the max response, negative = inhibition was inactive: 17.9%. The result for `Nc1ccc([As](=O)(O)c2ccc(N)cc2)cc1` reads inactive: 6.11%. On to `CC(C)(C)c1ccc(OP(C)(=O)O)cc1`, for which the max response, negative = inhibition is inactive: -1.9%. Regarding `CP(=O)(Nc1ccc(Cl)cc1)Oc1ccc(F)cc1` (configuration not stated), the max response, negative = inhibition was inactive: 2.05%.

On to `CCN(/C(=N/P(=O)(N1CCOCC1)N1CCOCC1)N1CCOCC1)c1ccc(OC)cc1`, for which the max response, negative = inhibition is inactive: -13.8%. In the case of `Cc1ccc(OP(=O)(Nc2nccs2)Oc2ccc(C)cc2)cc1`, the max response, negative = inhibition is inactive: -17.4%. Take `COc1ccccc1OP(=O)(Nc1ccc(C)cn1)Oc1ccccc1OC`: the max response, negative = inhibition is inactive: 1.97%.

Take `COc1ccc(OP(C)(=O)Nc2ccccn2)cc1` (configuration not stated): the max response, negative = inhibition was inactive: -11.6%. Turning to `CN1CCCC(OC(=O)C(c2ccccc2)c2ccccc2)C1` (configuration not stated), the max response, negative = inhibition is inactive: 5.27%. As to `CN(C)CCOC(=O)C(O)(c1ccccc1)C1CCCC1` (configuration not stated), the max response, negative = inhibition is inactive: 0.301%. On to `Clc1ccc(Cl)c(NC2=NCC(CBr)S2)c1` (configuration not stated), for which the max response, negative = inhibition was inactive: -1.8%. In the case of `NC(=O)c1cc([N+](=O)[O-])cc([N+](=O)[O-])c1N`, the max response, negative = inhibition was inactive: -3.67%. For `COc1ccccc1OP(C)(=O)Nc1ccc(Br)cc1` (configuration not stated), the max response, negative = inhibition was inactive: 5.69%. Regarding `COc1ccccc1OP(C)(=O)Nc1ccc(C)cc1C` (configuration not stated), the max response, negative = inhibition is inactive: -21.5%. For `CP(=O)(Nc1ccccn1)Oc1ccccc1` (configuration not stated), the max response, negative = inhibition was inactive: 0.105%.

In the case of `CCc1ccc(OP(C)(=O)O)cc1`, the max response, negative = inhibition was inactive: 3.94%. As for `Nc1cc(N)c2nonc2c1[N+](=O)[O-]`, the max response, negative = inhibition was inactive: -18.1%. On to `Cc1c(NP(C)(=O)Oc2ccc(C(C)C)cc2)c(=O)n(-c2ccccc2)n1C` (configuration not stated), for which the max response, negative = inhibition is inactive: -19.6%. As to `CC(C)CC(=O)NC(Sc1ccc(Cl)cc1)C(Cl)(Cl)Cl` (configuration not stated), the max response, negative = inhibition was inactive: -3.11%. The result for `Oc1ccccc1CNc1ccccn1` reads inactive: -3.17%.

Turning to `COc1ccccc1OP(C)(=O)Nc1ccc(C)c(C)c1` (configuration not stated), the max response, negative = inhibition is inactive: -3.39%. Turning to `Cc1ccc(NP(=O)(Oc2ccccc2F)Oc2ccccc2F)nc1`, the max response, negative = inhibition was inactive: -1.18%. Turning to `CCOP(=O)(Nc1ccccc1)OCC`, the max response, negative = inhibition was inactive: 6.16%. For the compound `COc1ccc(OP(C)(=O)Nc2ccccc2Br)cc1` (configuration not stated), the max response, negative = inhibition was inactive: -2%. As for `CCCC1OP(N)(=O)OCC1CC` (configuration not stated), the max response, negative = inhibition is inactive: 4.96%. For `CC(=O)Nc1ccc([As](=O)(O)O)cc1`, the max response, negative = inhibition is inactive: -21.1%.

Take `O=P(Nc1nc2ccc(Cl)cc2s1)(c1ccccc1)c1ccccc1`: the max response, negative = inhibition is inactive: 5.56%.

In the case of `CCN(N=Nc1nonc1N)c1nonc1N`, the max response, negative = inhibition was inactive: -5.73%. For `CP(=O)(Nc1ccc(Cl)cc1Cl)Oc1ccccc1` (configuration not stated), the max response, negative = inhibition was inactive: 25.8%. For the compound `CCCCCCCCCCCCCCCC1C[N+](C)(C)CCOP(C)(=O)O1` (configuration not stated), the max response, negative = inhibition was inactive: -15%. On to `Nc1cccc2ccc([As](=O)(O)O)cc12`, for which the max response, negative = inhibition was inactive: -18.2%.

Source of the values: PubChem BioAssay AID504847 (National Center for Advancing Translational Sciences (NCATS), 2011).
